The target in experiment [1] is porcine synovial gelatinase (Sus scrofa, UniProt Q95JA4). The experiment can be described thus: Porcine synovial gelatinase with fluorogenic substrate FS-7 (PSG/FS-7). The note with it: read-out: IC50 (μM) PSG/FS-7, substrate FS-7 10 μM, 37° C., pH 7.7, successive lines per compound = diastereomers, higher C18 mobility first, upper limit only for high affinity inhibitors. The protocol: (§1) Recombinant human fibroblast collagenase (rHFC) and porcine synovial gelatinase (PSG) were assayed at 37° C. by the procedure of Stack and Gray (1989). The fluorogenic metalloproteinase substrate Dnp-Pro-Leu-Gly-Leu-Trp-Ala-D-Arg-NH2 was dissolved at an initial concentration of 10 μM in 0.05M tris-HCl, 0.2M NaCl, 5 mM CaCl2, pH 7.7. Hydrolysis of the substrate at the Gly-Leu bond results in an increase in fluorescence that was monitored using an SLM-500C spectrofluorometer with excitation at 280 nm and emission at 346 nm. The reaction was initiated by addition of the enzyme; after determining the initial rate of substrate hydrolysis an aliquot of inhibitor was added and the inhibited rate redetermined. For lower affinity inhibitors (IC50>>[E0 ], where E0 is the enzyme concentration), inhibitor potencies were determined from plots of log (A0 /Ai-1) vs. log [Inhibitor], where A0 is the activity measured in the absence of inhibitor and Ai is that measured in the presence of inhibitor at concentration i (Ambrose et al., 1950). For high affinity inhibitors (IC50 =[E0 ]) only an upper limit of inhibitor potency could be estimated (Dixon and Webb, 1979).

Chains of the proteins cited; added tags and fusions are not shown. Residues count along the entry.
UniProt Q95JA4, 111-661 limits assumed: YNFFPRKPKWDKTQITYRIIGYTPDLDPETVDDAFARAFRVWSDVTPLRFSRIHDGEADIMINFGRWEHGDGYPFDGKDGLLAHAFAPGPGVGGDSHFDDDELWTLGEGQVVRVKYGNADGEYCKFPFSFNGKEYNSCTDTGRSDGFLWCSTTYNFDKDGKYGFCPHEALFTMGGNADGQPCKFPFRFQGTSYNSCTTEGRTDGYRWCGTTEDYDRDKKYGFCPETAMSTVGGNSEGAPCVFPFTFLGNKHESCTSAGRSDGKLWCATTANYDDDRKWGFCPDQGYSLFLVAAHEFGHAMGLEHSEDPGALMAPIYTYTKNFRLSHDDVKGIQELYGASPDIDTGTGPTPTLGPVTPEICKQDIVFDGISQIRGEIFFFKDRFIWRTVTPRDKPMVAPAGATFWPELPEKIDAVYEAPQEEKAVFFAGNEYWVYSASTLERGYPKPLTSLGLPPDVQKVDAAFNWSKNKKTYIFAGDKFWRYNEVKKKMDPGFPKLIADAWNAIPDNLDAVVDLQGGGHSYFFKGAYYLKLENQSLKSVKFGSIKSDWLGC
UniProt P03956, 100-469 limits assumed: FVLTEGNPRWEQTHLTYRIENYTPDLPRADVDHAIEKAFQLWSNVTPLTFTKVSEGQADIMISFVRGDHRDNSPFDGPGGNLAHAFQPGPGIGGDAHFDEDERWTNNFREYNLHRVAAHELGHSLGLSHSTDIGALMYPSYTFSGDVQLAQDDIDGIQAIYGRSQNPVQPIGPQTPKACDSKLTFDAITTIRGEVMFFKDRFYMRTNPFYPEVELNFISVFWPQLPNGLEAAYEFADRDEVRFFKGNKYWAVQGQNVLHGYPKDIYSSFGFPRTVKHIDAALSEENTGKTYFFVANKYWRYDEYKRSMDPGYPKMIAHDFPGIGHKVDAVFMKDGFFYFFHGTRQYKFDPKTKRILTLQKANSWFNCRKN
UniProt P21692, 100-469 limits assumed: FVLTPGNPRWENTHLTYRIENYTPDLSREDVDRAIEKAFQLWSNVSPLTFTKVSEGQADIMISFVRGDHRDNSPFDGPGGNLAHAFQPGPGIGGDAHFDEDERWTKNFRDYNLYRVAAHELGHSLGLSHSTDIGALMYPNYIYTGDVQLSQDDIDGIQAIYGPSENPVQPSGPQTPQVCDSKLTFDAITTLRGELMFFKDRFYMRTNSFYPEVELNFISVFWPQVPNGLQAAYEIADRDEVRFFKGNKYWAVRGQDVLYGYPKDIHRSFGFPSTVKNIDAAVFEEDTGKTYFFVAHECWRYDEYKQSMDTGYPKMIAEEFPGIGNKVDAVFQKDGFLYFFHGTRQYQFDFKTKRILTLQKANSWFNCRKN

Experiment [2] concerns the target Recombinant human fibroblast collagenase (Homo sapiens, UniProt P03956). The experiment in a line: Recombinant human fibroblast collagenase with fluorogenic substrate FS-7 (rHFC/FS-7). The note with it: read-out: IC50 (μM) rHFC/FS-7, substrate FS-7 10 μM, 37° C., pH 7.7, successive lines per compound = diastereomers, higher C18 mobility first. The method, then: as §1

The target of experiment [3] is Porcine synovial collagenase (Sus scrofa, UniProt P21692). The experiment in a line: Porcine synovial collagenase activity with type I (calf skin) collagen, gel densitometry (PSC/CSC). The note with it: read-out: IC50 (μM) PSC/CSC, acid-soluble calf skin collagen 0.8 μM, 35° C., pH 7.7, a range means 50% inhibition lay between the values, successive lines per compound = diastereomers, higher C18 mobility first. The protocol:
Porcine synovial collagenase activity (PSC) was measured with type I collagen essentially as described by Darlak et al. (1990). Varying amounts of inhibitor were added to the acid-soluble calf skin collagen (0.8 μM) at 35° C. in 0.05M tris-HCl, 0.2M NaCl, 5 mM CaCl2, 0.25M glucose, pH 7.7. Collagen degradation was initiated by adding purified porcine synovial collagenase and the reactions were stopped by the addition of an equal volume of sample dilution buffer (Laemmli, 1970) followed by boiling for 2-3 min. Undegraded collagen was resolved from its degradation products by polyacrylamide slab gel electrophoresis as described by Laemmli (1970). The gels were fixed in isopropanol/acetic acid/water (100:40:300 v/v) and then stained with 1% Coomassie Blue R-250 in fixing solution. After destaining, the percentage of α1 chain converted to the corresponding TC fragment was estimated by densitometry using a Bio-Rad model 610 video densitometer. IC50 values were estimated from the dependence of the percent of collagen degraded on inhibitor concentration.

Experiment [4] deals with pig synovial collagenase (Sus scrofa, UniProt P21692). The experiment can be described thus: Pig synovial collagenase with fluorogenic substrate FS-7 (PSC/FS-7). To be noted: read-out: IC50 (μM) PSC/FS-7, substrate Dnp-Pro-Leu-Gly-Leu-Trp-Ala-D-Arg-NH2, successive lines per compound = diastereomers, higher C18 mobility first. The protocol:
[The source words this procedure for another target and reports this target under the same test.] as §1

Setting [5] is: diastereomer of higher mobility, C18 column.
Where [6] appears, read: diastereomer of slower mobility.
The mark [7] stands for this setting: diastereomer of higher mobility.

Like-named read-outs stand apart in the source and are kept apart here. Where only a bound is given, the exact number is not on record here.

Regarding `CC(C)CC(CC(=O)NO)C(=O)N[C@@H](Cc1c[nH]c2ccccc12)C(N)=O` (stereo partly shown), the IC50 is less than 0.0001 µM in experiment [1] (setting [5]); 0.5 µM in experiment [1] (diastereomer of slower mobility, C18 column); 0.0025 µM in experiment [2] (setting [5]); 2.2 µM in experiment [2] (setting [6]).
As for `COc1ccc(C[C@H](NC(=O)C(CC(=O)NO)CC(C)C)C(=O)N[C@@H](C)C(N)=O)cc1OC` (stereo partly shown), the IC50 in experiment [3] (setting [7]) is 0.03 to 0.1 µM; in experiment [3] (setting [6]), 1 to 3 µM; in experiment [4] (diastereomer of higher mobility on C18 column), 0.01 µM; in experiment [4] (setting [6]) it was 2.8 µM; in experiment [1] (setting [7]), 0.004 µM; in experiment [1] (setting [6]), 1.3 µM.

These data come from patent US5387610A, “Peptide derivatives of collagenase inhibitor” (Research Corporation Technologies, Inc., priority 1992, dated 1995).
